Test results from PubChem BioAssay AID1892 (NMMLSC, 2009).
This is a selection; strong and weak results do not stand in their true shares. Calls of active or inactive are those of the source. No stated cut-off is given here; in the data, active means binding response below about 16% or above about 210%; inactive means in between.

target: Mitogen-activated protein kinase kinase kinase 2 (Homo sapiens) (UniProt Q9Y2U5); test: modulators of MEK5 binding to wildtype MEKK2, confirmation, biochemical, single concentration, multiplex bead flow cytometry (AID 1892); conditions: Alexa488-MEK5 binding to MEKK2 WT, at 10 µM, actives lie on both sides

Row | Structure (SMILES) | binding response (% of control)
1 | CCN(CC)CCCOC(=O)C(O)(c1ccccc1)C1CCCCC1 (stereo not drawn) | inactive: 105%
2 | CP(=O)(Nc1ccc(Cl)cc1)Oc1ccc(F)cc1 (stereo not drawn) | inactive: 103%
3 | COc1ccccc1OP(C)(=O)Nc1c(C)cccc1C (stereo not drawn) | inactive: 105%
